Test system: Adenosine receptor A2a (Bos taurus)
Test: Inhibition of specific [3H]-CGS- 21680 binding at Adenosine A2A receptor in bovine striatal membranes at 20 uM.
Conditions: Striatum, Membrane

SMILES	inhibition
O=C(Cc1ccccc1)Nc1nc2ccccc2c2cn(-c3ccccc3)nc12	13%
CCCn1c(=O)c2nn(-c3ccccc3)cc2c2ccccc21	50%
O=C(Nc1nc2ccccc2c2cn(-c3ccccc3)nc12)c1ccccc1	3%

Other lines, results leading:

inhibition	SMILES
13%	Cc1ccc(-n2cc3c(n2)c(NC2CCCCC2)nc2ccccc23)cc1
22%	Cc1ccc(-n2cc3c(n2)c(=O)[nH]c2ccccc23)cc1
47%	Cn1c(=O)c2nn(-c3ccccc3)cc2c2ccccc21
21%	Cc1ccc(-n2cc3c(n2)c(N)nc2ccccc23)cc1
